Reference: ChEMBL document CHEMBL1141989, “Amino acid conjugates as kappa opioid receptor agonists” (Bioorg Med Chem Lett, 2005)
Where “and” joins values, the source holds several entries; their conditions need not be identical. Equal values may be shown once.

Target: Opioid receptors; mu & kappa (Homo sapiens) (UniProt P41145+P35372)
Assay: Selectivity of binding affinity of human kappa opioid receptor over human mu opioid receptor
Format: protein assay

**Q.** With `CN(C(=O)Cc1ccc(Cl)c(Cl)c1)[C@H](CN1CCCC1)c1ccccc1` as the compound, how does the Selectivity read?
**A.** Its Selectivity is 1240 and 567.
